The conditions of data set [1]: plasma protein; cited from earlier work.
The conditions of data set [2]: in water at 25° C.; cited from earlier work.

For bovine serum albumin [BSA], the average half-life in data set [1] is 19 days. For the same substance, for the setting “albumin containing nanofibres”, the “release from the resulting carriers” value was “release easily” and the sublingual permeation level entry is “at a high level”. Further, the “time after loading donor samples onto mucosa at which permeation was detected” value (ca 4.8 mg total albumin in donor) turned out to be 20 min. For the same substance, in data set [2], the “isoelectric point (pI)” value is reported as about 4.7.

Turning to “fluorescent isothiocyanate-BSA [FITC-BSA, reference compound]”, the “transmucosal in vitro permeation through sublingual porcine membrane” value (ca 4.8 mg total albumin in donor, FIG. 6) was “well measurable”.
